Measurements taken from patent US20020177166A1, “Binding motif of a receptor” (MEDVET SCIENCE PTY.LTD., priority 2000, published 2002).

Key:
[1] = test system: p85 regulatory subunit of PI 3-kinase association with βc; test: Co-immunoprecipitation of p85 with βc in CTL-EN cells; assay type: cell-based; details: IL-3
Experimental: (a) analysis of PI 3-kinase activity. CTL-EN cells expressing IL-3Ra and either wtβc or βcHSRSLP→EFAAAA were starved for 12 hours in DMEM containing 0.5% FCS and stimulated with 50 ng/ml IL-3 for the indicated times. Cells were then lysed and phospho-tyrosine containing proteins were immunoprecipitated (2×10^7 cells/IP) using the 4G10 antibody. Immunoprecipitates were washed in 1× PI 3-kinase buffer (20 mM HEPES, pH 7.5, 5 mM MgCl2, 1 mM EGTA) and PI 3-kinase activity was analysed in a lipid kinase assay using phosphatidyl inositol and g^32PATP as substrates as described in the “Materials and Methods”. Autoradiogram of TLC plate is shown with ^32P-labelled phosphatidyl inositols (PIP) and the origin indicated. […] (b) CTL-EN cells were also examined for the association of βc with p85. CTL-EN cells expressing either wtβc or βcHSRSLP→EFAAAA were starved for 12 hours in DMEM containing 0.5% FCS and then stimulated with 50 ng/ml IL-3 for the indicated times. Cells were then lysed and the βc immunoprecipitated (2×10^7 cells/IP) with the 1C1 anti-βc specific mAb. Immunoprecipitates were then subjected to SDS-PAGE, transferred to nitrocellulose and immunoblotted with anti-p85 (1 mg/ml) followed by detection with HRP-conjugated anti-rabbit IgG antibody and ECL. The filters were then stripped, probed with anti-SHP2 (1 mg/ml), stripped again and finally probed with 1C1 anti-βc (2 mg/ml). […] The association of hisβc445-881 with p85 was also assessed in pull-down experiments together with peptide competition. (c) List of peptides used in the hisbβc445-881 pull-down experiment. S refers to a phospho-serine residue. (d) Association of p85 with recombinant hisβc445-881. hisβc445-881 (10 mg) coupled to Sepharose resin and phosphorylated on Ser585 with PKA (lanes 1-5) or Sepharose alone (lane 6) was incubated with COS-7 pre-cleared lysates in the absence (lane 1) or in the presence of 200 mM competing peptides (lane 2, scrambled. Lane 3, Ser585Ala. Lane 4, non-phospho-Ser585. lane 5, phospho-Ser585) for 1 hour at 4° C. […]

surface-labelled βc = test: Stoichiometry of βc phosphorylation in I125 surface-labelled CTL-EN cells; assay type: cell-based; details: following IL-3 stimulation
Excerpt: To address the functional significance of 14-3-3 binding to βc cell lines were generated expressing either wild type (wt) or mutant IL-3 receptors lacking the 143-3 binding site. […] The βc was immunoprecipitated and then subjected to immunoblot analysis using the anti-phospho-Ser585βc antibody. […] No association of 14-3-3 with the βcHSRSLP→EFAAAA or the βcS585G mutant controls in response to IL-3 was observed. […] The stoichiometry of Ser585 phosphorylation in response to IL-3 in vivo was also examined and compared to βc tyrosine phosphorylation. In these experiments, βc was immunoprecipitated from I^125 surface-labelled CTL-EN cells (to avoid detection of intracellular-only βc) with either anti-phosphorSer585, anti-phosphotyrosine or anti-βc antibodies from both IL-3-stimulated (+IL-3) or non-stimulated (−IL-3) cells expressing wtβc or βcS585G receptors. Immunoprecipitates were electrophoresed on a polyacrylamide gel and the amount of radiolabelled receptor immunoprecipitated was quantified using a phosphorImager. […] As we have previously reported (Stomski et al., 1996), immunoprecipitation of the βc from I^125 surface-labelled cells following IL-3 stimulation results in the co-immunoprecipitation of IL-3Rα.

B1: IL-3: recombinant human IL-3 produced in E. coli (protein, UniProt P08700 20-152, looked up)
Interleukin-3: APMTQTTPLKTSWVNCSNMIDEIITHLKQPPLPLLDFNNLNGEDQDILMENNLRRPNLEAFNRAVKSLQNASAIESILKNLLPCLPLATAAPTRHPIHIKDGDWNEFRRKLTFYLKTLENAQAQQTTLSLAIF
B1 was tested, and the “recruitment of p85 to βc” value ([1]; CTL-EN wtβc) was “association of p85 with wtβc which was maximal at 5 minutes; also recorded: recruitment of p85 to wtβc”, the “recruitment of p85 to βc” value ([1]; CTL-EN βcHSRSLP→EFAAAA) was “virtually abolished; also recorded: no recruitment of p85” and the “recruitment of p85 to βc” value ([1]; CTL-EN βcS585G) was “no recruitment of p85”. For the same molecule, the “surface-labelled βc phosphorylated on Ser585” value (surface-labelled βc; cells expressing wtβc) was “approximately 87%”, the “βc phosphorylated on tyrosine” value (surface-labelled βc; cells expressing wtβc) was “approximately 94%” and the “surface-labelled βcS585G tyrosine phosphorylated” value (surface-labelled βc; cells expressing βcS585G) was “Approximately 95%”.

Entries after “also recorded” stand apart in the source; their conditions may differ.
